The text below walks through data of US20230123135A1 (priority 2020, published 2023).

For one series, the system named is IL-1β. Kind of series: IL-1β in BALF, LPS-induced ARDS model. The format is in vivo, Mus musculus (BALB/c).
Another series has as its system LPS-induced ARDS model. Kind of series: Survival analysis after LPS 20 mg/kg intraperitoneal. The format is in vivo, Mus musculus (BALB/c). As to conditions: 48 h post-LPS.
A short description of series [1]: Clinical trials for PAX-1, toxicity. As to conditions: 472 patients in clinical trials so far; a portion given up to 20 mg/day.

For sodium meta-arsenite, the “inhibitory rate of IL-1β production (negative control as 100%)” value in the series with IL-1β (G2 SMA 1.03 mg/kg, 4 h) is 92%; with IL-1β (G2 SMA 1.03 mg/kg, 6 h), 87%; in the series on IL-1β (G2 SMA 1.03 mg/kg, 12 h), 98%; with IL-1β (G3 SMA 1.54 mg/kg, 4 h), 81%; in the series on IL-1β (G3 SMA 1.54 mg/kg, 6 h), 75%; in the series on IL-1β (G3 SMA 1.54 mg/kg, 12 h), 92%. The “inhibitory rate of IL-1β production (negative control as 100%)” value in the series on IL-1β (G4 SMA 2.05 mg/kg, 4 h) stood at 73%; in the series on IL-1β (G4 SMA 2.05 mg/kg, 6 h), 70%; in the series with IL-1β (G4 SMA 2.05 mg/kg, 12 h), 81%. Besides, the “survival compared to the negative control group (G1)” value is given as “extended” in the series with LPS-induced ARDS model (G3 SMA 1.54 mg/kg oral, p<0.005) and “extended” with LPS-induced ARDS model (G4 SMA 2.05 mg/kg oral, p<0.0005). In addition, the “death due to the toxicity of the drug” value in series [1] is recorded as “No death has been reported”.
